Results on one compound are retold here after publication PMC7482436, “Optopharmacology reveals a differential contribution of native GABAA receptors to dendritic and somatic inhibition using azogabazine” (Neuropharmacology, 2020).

Chains of the proteins cited; added tags and fusions are not shown. Residues count along the entry.
UniProt P62812, 28-455 T156A: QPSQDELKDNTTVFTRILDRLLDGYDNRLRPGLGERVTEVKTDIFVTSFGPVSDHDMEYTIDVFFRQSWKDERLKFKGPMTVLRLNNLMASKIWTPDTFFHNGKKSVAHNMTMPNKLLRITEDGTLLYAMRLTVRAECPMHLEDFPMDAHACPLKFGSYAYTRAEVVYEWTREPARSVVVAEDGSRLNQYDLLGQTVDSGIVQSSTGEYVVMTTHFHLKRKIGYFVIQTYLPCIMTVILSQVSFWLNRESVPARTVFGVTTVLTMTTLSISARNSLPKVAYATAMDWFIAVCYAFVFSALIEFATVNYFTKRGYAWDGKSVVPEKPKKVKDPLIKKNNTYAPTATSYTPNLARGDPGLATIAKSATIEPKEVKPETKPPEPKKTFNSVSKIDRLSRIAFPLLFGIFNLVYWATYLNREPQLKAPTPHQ
UniProt P62812, 28-455: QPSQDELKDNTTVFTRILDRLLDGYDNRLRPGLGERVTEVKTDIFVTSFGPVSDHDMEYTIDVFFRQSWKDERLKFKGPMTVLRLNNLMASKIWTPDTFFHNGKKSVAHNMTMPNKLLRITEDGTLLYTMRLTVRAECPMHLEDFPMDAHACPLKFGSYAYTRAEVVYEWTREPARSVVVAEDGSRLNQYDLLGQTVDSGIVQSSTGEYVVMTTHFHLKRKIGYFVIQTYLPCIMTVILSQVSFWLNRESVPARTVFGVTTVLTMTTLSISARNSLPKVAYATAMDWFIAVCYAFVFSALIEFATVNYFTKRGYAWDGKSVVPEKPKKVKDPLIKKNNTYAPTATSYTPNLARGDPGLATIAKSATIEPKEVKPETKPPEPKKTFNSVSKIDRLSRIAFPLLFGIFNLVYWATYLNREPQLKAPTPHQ
UniProt P62812, 28-455 R146Q: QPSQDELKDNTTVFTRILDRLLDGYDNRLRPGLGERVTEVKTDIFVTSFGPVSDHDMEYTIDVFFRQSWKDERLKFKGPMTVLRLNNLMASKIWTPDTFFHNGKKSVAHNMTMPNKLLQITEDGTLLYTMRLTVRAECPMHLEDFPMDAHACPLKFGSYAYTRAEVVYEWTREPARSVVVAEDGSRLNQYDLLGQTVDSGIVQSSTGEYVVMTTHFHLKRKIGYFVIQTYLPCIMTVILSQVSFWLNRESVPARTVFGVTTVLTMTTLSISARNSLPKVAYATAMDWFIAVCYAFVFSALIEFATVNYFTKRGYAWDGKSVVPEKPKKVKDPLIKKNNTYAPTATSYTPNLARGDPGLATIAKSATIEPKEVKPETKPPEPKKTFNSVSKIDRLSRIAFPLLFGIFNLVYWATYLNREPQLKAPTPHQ
UniProt P63137, 25-512 limits assumed, stated change not applied: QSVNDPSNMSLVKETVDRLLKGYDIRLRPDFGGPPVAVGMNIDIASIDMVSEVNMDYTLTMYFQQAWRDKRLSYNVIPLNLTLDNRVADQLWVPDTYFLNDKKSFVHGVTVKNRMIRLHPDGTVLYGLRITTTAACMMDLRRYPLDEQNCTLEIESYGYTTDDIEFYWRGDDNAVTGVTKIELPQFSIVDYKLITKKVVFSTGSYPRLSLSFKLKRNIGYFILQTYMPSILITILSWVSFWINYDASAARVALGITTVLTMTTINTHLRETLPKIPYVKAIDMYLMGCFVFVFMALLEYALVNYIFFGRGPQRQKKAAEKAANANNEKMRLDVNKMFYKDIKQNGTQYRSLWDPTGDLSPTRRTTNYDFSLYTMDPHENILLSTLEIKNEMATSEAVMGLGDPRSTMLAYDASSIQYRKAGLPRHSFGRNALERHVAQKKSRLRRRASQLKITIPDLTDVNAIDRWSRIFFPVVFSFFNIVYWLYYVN
UniProt P63137, 25-512 R231Q limits assumed: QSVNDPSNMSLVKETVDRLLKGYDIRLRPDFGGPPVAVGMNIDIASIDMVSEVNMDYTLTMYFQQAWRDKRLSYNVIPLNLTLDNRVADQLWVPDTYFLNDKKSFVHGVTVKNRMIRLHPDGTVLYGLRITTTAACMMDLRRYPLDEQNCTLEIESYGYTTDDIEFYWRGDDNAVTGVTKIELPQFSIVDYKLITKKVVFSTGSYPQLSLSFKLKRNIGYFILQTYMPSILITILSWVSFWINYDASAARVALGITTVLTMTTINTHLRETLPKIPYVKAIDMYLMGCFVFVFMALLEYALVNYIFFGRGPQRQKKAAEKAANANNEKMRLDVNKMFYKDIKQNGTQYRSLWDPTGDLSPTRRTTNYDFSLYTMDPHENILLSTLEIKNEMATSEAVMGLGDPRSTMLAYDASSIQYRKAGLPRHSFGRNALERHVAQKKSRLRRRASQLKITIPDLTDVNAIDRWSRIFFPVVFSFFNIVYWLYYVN
UniProt P63137, 26-512: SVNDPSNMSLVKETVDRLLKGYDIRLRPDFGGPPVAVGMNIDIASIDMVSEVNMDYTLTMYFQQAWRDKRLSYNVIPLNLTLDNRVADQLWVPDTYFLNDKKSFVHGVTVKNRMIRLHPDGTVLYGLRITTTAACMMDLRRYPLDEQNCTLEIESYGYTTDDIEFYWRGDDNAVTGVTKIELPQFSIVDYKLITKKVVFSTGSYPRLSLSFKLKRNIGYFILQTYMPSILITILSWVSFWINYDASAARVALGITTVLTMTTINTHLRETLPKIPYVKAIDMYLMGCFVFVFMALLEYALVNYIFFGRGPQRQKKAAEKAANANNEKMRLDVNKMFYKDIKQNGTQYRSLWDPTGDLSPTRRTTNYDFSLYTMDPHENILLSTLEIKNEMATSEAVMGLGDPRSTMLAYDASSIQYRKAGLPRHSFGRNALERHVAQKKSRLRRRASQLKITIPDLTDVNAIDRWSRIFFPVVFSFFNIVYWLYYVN

Assay [1] addresses α1^T129Aβ2γ2L (Mus musculus, UniProt P62812+P63137, T156A). Description: Whole-cell patch clamp, mutant α1^T129Aβ2γ2L GABAARs in HEK293 cells. Background: In patch-clamp work, channel activity is measured electrically.
Assay [2] addresses α1β2^R207Qγ2L (Mus musculus, UniProt P62812+P63137, R231Q). Description: Whole-cell patch clamp, mutant α1β2^R207Qγ2L GABAARs in HEK293 cells.
For assay [3], the target named is α1β2^R119Qγ2L (Mus musculus, UniProt P62812+P63137, R146Q, form not given). Put plainly: Whole-cell patch clamp, mutant α1β2^R119Qγ2L GABAARs in HEK293 cells (negative control). Conditions: dark-adapted (trans) azogabazine.

As usually defined, the IC50 is the concentration that gives 50% inhibition. Broadly, the pIC50 is the negative decadic logarithm of the IC50, by convention in mol/L. Read a high pIC50 as a small IC50.

Take `N=c1ccc(-c2ccc(N=Nc3ccccc3)cc2)nn1CCCC(=O)O` [azogabazine]: in assay [1], the “reduction of potency compared to wild-type receptors” value stood at 10 fold. Also, in assay [2], the “reduction of potency compared to wild-type receptors” value is 10 fold. In assay [3], this compound returned an IC50 of 24.4 nM and a pIC50 of 7.61 ± 0.02.
